Test results published in PMC12432435, “Not only an inhibitor: Trehalose enhances the catalytic action exerted on oxaloacetate by rabbit lactate dehydrogenase” (Protein Science : A Publication of the Protein Society, 2025).

Target: Lactate dehydrogenase from rabbit skeletal muscle (LDH-A) (rabbit) (UniProt P13491)
Assay: ultrafiltration (100 kDa cutoff); 3 uM tetrameric enzyme, 125 uM beta-NADH, 50 mM Tris-HCl pH 7.5, without or with 4 or 6 mM oxaloacetate; Amicon Ultra 100 kDa cutoff, 15 s at 14,000 x g; protein in retentate and eluate by Bradford; tests dissociation of the tetramer

Lactate dehydrogenase from rabbit skeletal muscle (LDH-A) (from UniProt P13491 1-332) (enzyme)
percent of total enzyme recovered in the retentate (100 kDa cutoff), with 4 mM oxaloacetate: 97%
percent of total enzyme recovered in the retentate (100 kDa cutoff), with 6 mM oxaloacetate: 85%
percent of total enzyme recovered in the retentate (100 kDa cutoff), without oxaloacetate: 98%
